The source of these data is patent US9340537B2, “Benzamide derivatives for inhibiting the activity of ABL1, ABL2 and BCR-ABL1” (NOVATIS AG, priority 2012, dated 2016).

Protein sequences, listed by entry. Tags and fused reporters are not part of them. Residues count along the entry.
UniProt P00519, 64-515: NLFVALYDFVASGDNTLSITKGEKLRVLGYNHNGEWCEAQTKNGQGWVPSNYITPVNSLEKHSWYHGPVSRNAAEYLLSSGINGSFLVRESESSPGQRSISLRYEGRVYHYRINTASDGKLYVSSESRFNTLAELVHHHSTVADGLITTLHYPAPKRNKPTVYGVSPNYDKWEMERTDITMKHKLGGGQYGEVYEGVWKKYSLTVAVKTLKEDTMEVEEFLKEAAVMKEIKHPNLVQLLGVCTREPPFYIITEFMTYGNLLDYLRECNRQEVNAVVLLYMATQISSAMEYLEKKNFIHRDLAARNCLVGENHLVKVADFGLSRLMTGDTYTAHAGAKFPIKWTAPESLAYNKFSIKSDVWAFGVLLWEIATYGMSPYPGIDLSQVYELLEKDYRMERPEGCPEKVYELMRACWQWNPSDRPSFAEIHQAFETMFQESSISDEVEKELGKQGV

The target in one experiment is ABL1 (64-515) (Homo sapiens (Human), UniProt P00519). As to the kind of experiment: Caliper ABL1 (64-515) microfluidic mobility shift kinase assay. The settings on record: read-out: Caliper ABL1 (64-515) IC50.
A further experiment deals with BCR-ABL1+KCL-22 cells. As to the kind of experiment: Acquired resistance in BCR-ABL1+KCL-22 cells in vitro. Type of experiment: cell-based. The conditions noted are these: single agent, cells treated every 3-4 days.

As usually defined, the IC50 is the concentration that inhibits the measured activity by half. Turning to `N[C@]1(C(F)(F)F)CCN(c2ncc(C(=O)Nc3ccc(OC(F)(F)F)cc3)cc2-c2ccn[nH]2)C1` [Example 32, (R)-6-(3-Amino-3-(trifluoromethyl)pyrrolidin-1-yl)-5-(1H-pyrazol-5-yl)-N-(4-(trifluoromethoxy)phenyl)nicotinamide], on ABL1 (64-515), the IC50 worked out at 4.1 nM.

On to `Cc1nc(Nc2ncc(C(=O)Nc3c(C)cccc3Cl)s2)cc(N2CCN(CCO)CC2)n1` [dasatinib], for which the “time until acquired resistance” value with BCR-ABL1+KCL-22 cells lay within 18 to 21 days.
